Test results reported in PMC6627609 (2019).

By UniProt entry, the sequences of proteins in these tests, tags left out. Where a name states a change or a piece, a line headed by the entry shows the natural chain unless it says otherwise.
UniProt Q8ZKQ6: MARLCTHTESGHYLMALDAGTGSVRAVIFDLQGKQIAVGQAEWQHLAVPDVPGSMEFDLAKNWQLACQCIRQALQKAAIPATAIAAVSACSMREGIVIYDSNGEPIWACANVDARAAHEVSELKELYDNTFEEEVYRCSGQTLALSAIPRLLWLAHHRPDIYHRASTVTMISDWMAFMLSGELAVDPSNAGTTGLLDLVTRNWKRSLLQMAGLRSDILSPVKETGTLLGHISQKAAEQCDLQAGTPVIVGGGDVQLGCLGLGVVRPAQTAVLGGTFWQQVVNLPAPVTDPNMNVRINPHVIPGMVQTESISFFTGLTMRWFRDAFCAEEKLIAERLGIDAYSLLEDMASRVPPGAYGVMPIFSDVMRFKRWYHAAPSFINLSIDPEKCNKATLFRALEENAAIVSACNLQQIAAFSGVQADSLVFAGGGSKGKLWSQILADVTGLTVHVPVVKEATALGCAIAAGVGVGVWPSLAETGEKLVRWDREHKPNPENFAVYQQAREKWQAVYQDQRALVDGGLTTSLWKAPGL

Target: LsrK (Salmonella typhimurium, UniProt Q8ZKQ6)
Details: 50 µM

Compound | Inhibition (%)
THIMEROSAL | 141
O=S(=O)([O-])c1cc(N=C=S)ccc1C=Cc1ccc(N=C=S)cc1S(=O)(=O)[O-].[Na+].[Na+] [4.4'-DIISOTHIOCYANOSTILBENE-2.2'-SUFONIC ACID SODIUM SALT] | 141
